Only a part is listed here, and it is no random draw. Records with an inconclusive call do not appear. Some salts and complexes are drawn in separate pieces, as the source files them; their charges need not balance. The source made the active and inactive calls. Calls come from the whole dose curve; as a rule, active = well fitted inhibition curve with a large enough effect; inconclusive = small, poorly fitted or top-dose-only effect, or another doubt; inactive = no such curve, though single readings can be large or run the other way.
% is set by controls: 0 for no effect and ±100 for the full control effect.

Chains of the proteins cited; added tags and fusions are not shown.
UniProt Q92830, whole entry: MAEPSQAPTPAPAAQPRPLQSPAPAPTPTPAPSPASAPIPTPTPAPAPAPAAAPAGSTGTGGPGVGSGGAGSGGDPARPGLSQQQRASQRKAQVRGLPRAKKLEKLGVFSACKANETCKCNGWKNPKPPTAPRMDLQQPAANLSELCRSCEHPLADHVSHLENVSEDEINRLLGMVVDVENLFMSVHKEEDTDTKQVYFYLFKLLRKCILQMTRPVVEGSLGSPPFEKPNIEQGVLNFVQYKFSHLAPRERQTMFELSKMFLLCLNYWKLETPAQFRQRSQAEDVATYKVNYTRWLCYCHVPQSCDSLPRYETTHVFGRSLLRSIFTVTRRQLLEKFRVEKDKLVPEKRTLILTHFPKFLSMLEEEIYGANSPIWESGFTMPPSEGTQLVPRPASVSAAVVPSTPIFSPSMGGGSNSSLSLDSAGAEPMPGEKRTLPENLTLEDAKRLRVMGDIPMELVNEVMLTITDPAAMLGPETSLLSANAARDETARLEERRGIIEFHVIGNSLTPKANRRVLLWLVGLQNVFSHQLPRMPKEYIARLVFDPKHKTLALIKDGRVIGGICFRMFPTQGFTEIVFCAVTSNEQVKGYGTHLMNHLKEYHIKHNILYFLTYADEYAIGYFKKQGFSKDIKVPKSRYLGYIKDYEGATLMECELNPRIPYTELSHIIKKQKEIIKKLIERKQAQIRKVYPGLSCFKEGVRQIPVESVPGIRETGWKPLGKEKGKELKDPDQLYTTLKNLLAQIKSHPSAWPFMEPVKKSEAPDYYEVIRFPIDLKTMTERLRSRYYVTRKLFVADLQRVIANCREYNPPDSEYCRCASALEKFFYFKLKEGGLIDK

For the assay, the target named is Histone acetyltransferase KAT2A (Homo sapiens) (UniProt Q92830). As to the kind of experiment: qHTS Assay for Inhibitors of GCN5L2. The conditions noted are these: GCN5L2 HAT assay, ThioGlo1 CoA-SH fluorescence; at 58.9 µM (top of the series).
For `CC(C)(C)OC(=O)N1CCC(Nc2ccccc2)CC1`, the activity change, negative = inhibition is inactive: 0.499%.

In the case of `CCCOc1ccc(C(=O)NCC2(N(C)C)CCCCC2)cc1`, the activity change, negative = inhibition is inactive: 3.45%. Regarding `COc1cccc(C(=O)N(c2cc(C)cc(C)c2)C2CCN(C(=O)OC(C)(C)C)CC2)c1`, the activity change, negative = inhibition was inactive: -2.92%. The result for `COc1cc(C(=O)NCC2(N3CCOCC3)CCCCC2)cc(OC)c1OC` reads inactive: -8.14%. As for `COc1cc(OC)cc(C(=O)NCC2(N3CCOCC3)CCCCC2)c1`, the activity change, negative = inhibition is inactive: -5.56%. For the compound `CCC(CO)(C(=O)OC1CN2CCC1CC2)c1ccccc1` (configuration not stated), the activity change, negative = inhibition is inactive: 2.27%. Take `CN1CCC(Nc2ccc(Cl)cc2)CC1`: the activity change, negative = inhibition is inactive: -0.219%. For `CCCOc1ccc(C)cc1CN(CCCl)CCCl`, the activity change, negative = inhibition is inactive: 2.52%.

Turning to `COc1ccc(C(=O)NCC2(N3CCCCC3)CCCCC2)c(OC)c1OC`, the activity change, negative = inhibition was inactive: -1.62%. As for `CC(C)(C)OC(=O)N1CCC(N(C(=O)c2ccccc2)c2ccc(F)cc2)CC1`, the activity change, negative = inhibition was inactive: -2.97%. Regarding `COc1ccc(C(=O)NCC2(N3CCCCC3)CCCCC2)cc1`, the activity change, negative = inhibition was inactive: -0.237%. The result for `O=C(NCC1(N2CCCCC2)CCCCC1)c1cccs1` reads inactive: -1.7%; that for `O=C(NCC1(N2CCCCC2)CCCCC1)c1ccc(=O)[nH]c1`, inactive: 3.7%. Turning to `CSc1ccccc1C(=O)NCC1(N2CCCCC2)CCCCC1`, the activity change, negative = inhibition was inactive: 2.97%.

In the case of `Cc1cc(C)cc(N(C(=O)c2ccccc2)C2CCN(C(=O)OC(C)(C)C)CC2)c1`, the activity change, negative = inhibition was inactive: -10.6%. Under `O=C(NCC1(N2CCCCC2)CCCCC1)c1ccc(Cl)nc1` stands inactive: -5.82%; under `O=C(NCC1(N2CCOCC2)CCCCC1)c1cc2ccccc2o1`, inactive: -0.845%; under `COc1ccc(Cl)cc1C(=O)NCC1(N2CCOCC2)CCCCC1`, inactive: -3.97%.

For `N#CC1(Nc2ccccc2)CCN(Cc2ccccc2)CC1`, the activity change, negative = inhibition was inactive: -3.5%. Consider `O=C(NCC1(N2CCCCC2)CCCCC1)c1ccc(Cl)s1`, for which the activity change, negative = inhibition was inactive: 0.375%.

On to `O=C(OC1CN2CCC1CC2)C1c2ccccc2Oc2ccccc21` (configuration not stated), for which the activity change, negative = inhibition is inactive: -8.7%.

Turning to `CCOC(=O)N1CCC(Nc2ccc(OC)cc2)CC1`, the activity change, negative = inhibition is inactive: 9.01%. With `O=C(NCC1(N2CCOCC2)CCCCC1)c1ccc(Cl)cc1`, the activity change, negative = inhibition was inactive: -5.96%. Turning to `CCOc1ccc(C)cc1CN(CCCl)CCCl`, the activity change, negative = inhibition was inactive: 1.5%. As to `COc1ccccc1C(=O)NCC1(N2CCOCC2)CCCCC1`, the activity change, negative = inhibition is inactive: 0.869%. With `CCOC(=O)N1CCC(Nc2ccc(F)cc2)CC1`, the activity change, negative = inhibition is inactive: -4.37%. On to `COc1ccc(NC2CCN(CCc3ccccc3)CC2)c(OC)c1`, for which the activity change, negative = inhibition is inactive: -3.61%. Consider `CCCCOc1ccc(C(=O)NCC2(N3CCOCC3)CCCCC2)cc1`, for which the activity change, negative = inhibition was inactive: 1.71%. The result for `O=C(NCC1(N2CCCCC2)CCCCC1)c1ccc(F)cc1` reads inactive: -0.903%; that for `Cc1ccc(OCC(C)C)c(CN(CCCl)CCCl)c1`, inactive: -11.9%.

With `CCOC(=O)N1CCC(Nc2cccc(C)c2)CC1`, the activity change, negative = inhibition was inactive: -8.78%.

In the case of `COc1cc(C(=O)NCC2(N(C)C)CCCCC2)ccc1OC(F)F`, the activity change, negative = inhibition is inactive: -5.55%.

With `O=C(NCC1(N2CCCCC2)CCCCC1)c1ccc(OC(F)F)cc1`, the activity change, negative = inhibition is inactive: -5.48%. Turning to `N#CC1(Nc2ccccc2)CCN(CCc2ccccc2)CC1`, the activity change, negative = inhibition was inactive: -8.82%. On to `CCN1CCC(Nc2ccc(Cl)cc2)CC1`, for which the activity change, negative = inhibition was inactive: -6.1%. Regarding `CSc1ccc(C(=O)NCC2(N3CCOCC3)CCCCC2)cc1`, the activity change, negative = inhibition was inactive: 1.01%. In the case of `CCOc1ccc(C(=O)NCC2(N3CCOCC3)CCCCC2)cc1`, the activity change, negative = inhibition is inactive: -16.5%.

Consider `O=C(NCC1(N2CCCCC2)CCCCC1)c1cccc([N+](=O)[O-])c1`, for which the activity change, negative = inhibition is inactive: -3.28%. As for `O=[N+]([O-])c1cc([N+](=O)[O-])c(NCC2CCS(=O)(=O)C2)c([N+](=O)[O-])c1` (configuration not stated), the activity change, negative = inhibition was inactive: -5.87%.

`O=C(NCC1(N2CCCCC2)CCCCC1)c1cccc(C(F)(F)F)c1`: the activity change, negative = inhibition is inactive: -2.02%. Turning to `O=C(NCC1(N2CCOCC2)CCCCC1)c1cc(=O)[nH]c2ccccc12`, the activity change, negative = inhibition is inactive: 0%. For the compound `COc1cc(C(=O)NCC2(N3CCCCC3)CCCCC2)ccc1OC(F)F`, the activity change, negative = inhibition was inactive: 1.16%. The result for `COc1ccc(NC2CCN(C(=O)OC(C)(C)C)CC2)cc1` reads inactive: -4.47%; that for `CC(C)c1ccc(C(=O)NCC2(N3CCOCC3)CCCCC2)cc1`, inactive: -5.51%. The result for `CN1CCN(CCOC(=O)C(O)(c2ccccc2)c2ccccc2)CC1` reads inactive: -0.584%. Consider `CC(C)c1ccc(NC2CCN(C(=O)OC(C)(C)C)CC2)cc1`, for which the activity change, negative = inhibition was inactive: -18.6%. In the case of `CN(C)c1cccc(C(=O)NCC2(N3CCCCC3)CCCCC2)c1`, the activity change, negative = inhibition is inactive: -8.44%. Take `O=[N+]([O-])c1cc([N+](=O)[O-])c(OC2CCCCC2O)c([N+](=O)[O-])c1` (configuration not stated): the activity change, negative = inhibition is inactive: -17.3%.

As for `COc1ccc(CN(CCCl)CCCl)cc1Cl`, the activity change, negative = inhibition is inactive: -1.64%.

Consider `O=C(NCC1(N2CCOCC2)CCCCC1)c1cc(F)c(F)cc1Cl`, for which the activity change, negative = inhibition was inactive: -0.817%.

For `COc1cc(OC)c(C(=O)NCC2(N(C)C)CCCCC2)cc1OC`, the activity change, negative = inhibition was inactive: -20.7%.

On to `O=C(OC1CN2CCC1CC2)c1ccc([N+](=O)[O-])cc1` (configuration not stated), for which the activity change, negative = inhibition is inactive: -1.23%. For the compound `O=C(NCC1(N2CCCCC2)CCCCC1)c1cncc(Br)c1`, the activity change, negative = inhibition is inactive: 4.32%. Under `COc1ccc2c(c1O)-c1c(O)c(OC)cc3c1[C@H](C2)[N+](C)(C)CC3.O=[N+]([O-])c1cc([N+](=O)[O-])c([O-])c([N+](=O)[O-])c1[O-]` stands inactive: -7.96%; under `O=C(NCC1(N2CCOCC2)CCCCC1)c1ccccc1Br`, inactive: -7.36%; under `CCCOc1ccc(C(=O)NCC2(N(C)C)CCCCC2)cc1OC`, inactive: 31.8%.

For `CCCCOc1ccccc1C(=O)NCC1(N2CCOCC2)CCCCC1`, the activity change, negative = inhibition was inactive: -11.5%.

The values are drawn from PubChem BioAssay AID504327 (National Center for Advancing Translational Sciences (NCATS), 2011).
